Source: BindingDB's records for US8530494
pKi: −log10 of the molar value.

Amino acid sequences for entries named in this document (tags omitted).
UniProt P41146, whole entry: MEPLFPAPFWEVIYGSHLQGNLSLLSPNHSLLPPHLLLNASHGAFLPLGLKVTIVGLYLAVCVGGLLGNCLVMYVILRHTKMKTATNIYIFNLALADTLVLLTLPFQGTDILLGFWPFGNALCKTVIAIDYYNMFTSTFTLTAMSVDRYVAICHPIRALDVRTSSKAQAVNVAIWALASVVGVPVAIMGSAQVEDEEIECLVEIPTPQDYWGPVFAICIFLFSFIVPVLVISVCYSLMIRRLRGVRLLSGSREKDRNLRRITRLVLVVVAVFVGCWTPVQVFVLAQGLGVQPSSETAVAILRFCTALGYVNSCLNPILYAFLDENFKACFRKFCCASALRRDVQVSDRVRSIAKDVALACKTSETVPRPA
UniProt P41145, whole entry: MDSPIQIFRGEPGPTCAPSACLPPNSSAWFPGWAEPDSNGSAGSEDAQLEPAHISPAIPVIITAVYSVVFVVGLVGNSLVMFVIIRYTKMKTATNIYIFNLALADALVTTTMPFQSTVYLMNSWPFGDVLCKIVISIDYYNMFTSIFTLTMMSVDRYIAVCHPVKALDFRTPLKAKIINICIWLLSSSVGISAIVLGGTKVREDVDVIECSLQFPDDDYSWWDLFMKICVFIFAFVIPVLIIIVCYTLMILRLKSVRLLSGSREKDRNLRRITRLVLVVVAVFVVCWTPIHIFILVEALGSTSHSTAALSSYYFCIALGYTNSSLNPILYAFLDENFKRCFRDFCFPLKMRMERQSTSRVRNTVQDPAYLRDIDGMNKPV

Tests used:
Nociceptin receptor = Nociceptin receptor (Homo sapiens, UniProt P41146); assay: ASSAY_NAME: Binding Assay DESCRIPTION: Binding assay of certain compounds of this invention to the opioid receptor was determine using radioligand binding assay (screening and dose-displacement).
[1] = target: Kappa-type opioid receptor (Homo sapiens, UniProt P41145); assay: as above

Q: `COc1ccc2c3c1O[C@H]1[C@@]4(OC)CC[C@@]5(C[C@@H]4COc4ccccc4)[C@@H](C2)N(C)CC[C@]315` was tested. Which pKi (Nociceptin receptor) did it give?
A: The pKi was 5.59.

Q: How did the pKi [1] turn out when `COc1ccc2c3c1O[C@H]1[C@@]4(OC)CC[C@@]5(C[C@@H]4COCc4ccc(OC(F)(F)F)cc4)[C@@H](C2)N(C)CC[C@]315` was run?
A: Its pKi is 8.24.
